Assay results taken from publication PMC5323086, “Ionization Constants of the Six Dichloroanilines and the Six Dichlorophenols in Aqueous Solution at 25 °C” (Journal of Research of the National Bureau of Standards. …, 1964).
Read-outs that look alike come from different tables or passages of the source.

Assays:
[1] = pKA calculated from pKP of the corresponding phenol by linear relation eq (8)
[2] = cited from earlier work
[3] = pK calculated from monosubstituted compounds assuming additivity of substituent effects; conditions: pK (calc.)−pK (obs.)

| Compound | ΔpK(1) Dinitrophenol [3] | further results |
| --- | --- | --- |
| 2,5-xylidene |  | discrepancy between observed and predicted pK, eq (8) [1]: 0.95; pK [2]: 4.57 |
| O=[N+]([O-])c1cccc(O)c1[N+](=O)[O-] | 0.65 |  |
| O=[N+]([O-])c1ccc([N+](=O)[O-])c(O)c1 | .40 |  |
| O=[N+]([O-])c1ccc(O)cc1[N+](=O)[O-] | .13 |  |
| O=[N+]([O-])c1cccc([N+](=O)[O-])c1O |  | pK ([2]; observed value): 3.713 |
